From ChEMBL document CHEMBL1127434, “Discovery of nanomolar ligands for 7-transmembrane G-protein-coupled receptors from a diverse N-(substituted)glycine peptoid library” (J Med Chem, 1994)

Protein sequences, listed by entry. Tags and fused reporters are not part of them.
UniProt P33535, whole entry: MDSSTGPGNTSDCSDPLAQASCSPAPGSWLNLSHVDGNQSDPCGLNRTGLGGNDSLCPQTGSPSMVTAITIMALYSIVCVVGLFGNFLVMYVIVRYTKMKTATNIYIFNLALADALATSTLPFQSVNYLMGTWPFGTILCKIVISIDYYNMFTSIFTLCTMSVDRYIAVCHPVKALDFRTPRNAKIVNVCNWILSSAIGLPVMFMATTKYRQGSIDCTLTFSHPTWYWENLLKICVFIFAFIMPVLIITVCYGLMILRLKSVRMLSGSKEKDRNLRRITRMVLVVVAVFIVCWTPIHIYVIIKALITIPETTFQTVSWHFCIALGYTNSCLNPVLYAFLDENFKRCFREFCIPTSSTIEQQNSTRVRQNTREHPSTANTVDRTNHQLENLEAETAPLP

Target: Mu-type opioid receptor (Rattus norvegicus, UniProt P33535)

C[C@@H](NC(=O)[C@@H](N)Cc1ccc(O)cc1)C(=O)NCC(=O)N(C)[C@@H](Cc1ccccc1)C(=O)NCCO [DAMGO]
Ki: 4 nM
